Results on two compounds are retold here after PubChem BioAssay AID2751 (The Scripps Research Institute Molecular Screening Center, 2010).

Sequences of proteins named here, by UniProt entry; tags and fusion partners are left off.
UniProt Q4J6C6, whole entry: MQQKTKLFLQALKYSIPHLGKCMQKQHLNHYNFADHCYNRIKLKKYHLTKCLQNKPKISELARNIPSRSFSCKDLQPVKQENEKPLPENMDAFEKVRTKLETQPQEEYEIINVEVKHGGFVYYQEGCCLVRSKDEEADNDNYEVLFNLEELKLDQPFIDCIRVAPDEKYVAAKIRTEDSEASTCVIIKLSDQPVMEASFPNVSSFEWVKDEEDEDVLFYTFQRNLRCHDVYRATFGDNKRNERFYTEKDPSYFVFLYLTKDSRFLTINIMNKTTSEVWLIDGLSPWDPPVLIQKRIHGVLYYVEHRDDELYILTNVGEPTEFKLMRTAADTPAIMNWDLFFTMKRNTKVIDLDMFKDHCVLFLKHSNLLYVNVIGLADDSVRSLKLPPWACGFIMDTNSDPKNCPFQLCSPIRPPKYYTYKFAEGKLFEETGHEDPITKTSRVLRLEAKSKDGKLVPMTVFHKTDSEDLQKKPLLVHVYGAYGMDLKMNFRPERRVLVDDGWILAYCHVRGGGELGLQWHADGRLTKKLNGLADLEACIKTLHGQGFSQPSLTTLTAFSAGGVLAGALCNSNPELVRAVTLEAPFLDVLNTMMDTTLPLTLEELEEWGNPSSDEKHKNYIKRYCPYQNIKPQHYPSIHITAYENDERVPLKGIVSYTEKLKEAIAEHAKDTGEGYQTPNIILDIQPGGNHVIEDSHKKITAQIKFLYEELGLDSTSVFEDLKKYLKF

This is a selection; strong and weak results do not stand in their true shares. Calls of active or inactive are those of the source. Cut-off read from the data, not from the text of the source: active = inhibition above about 43%; inactive = the rest.

This assay concerns the target Prolyl endopeptidase-like (Homo sapiens) (UniProt Q4J6C6). Nature of the assay: PREPL enzyme inhibitors, primary screen, biochemical, fluorescence polarization (AID 2751).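 Note: 0% = enzyme with DMSO and 100% = wells lacking enzyme.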 To be noted: recombinant PREPL, fluorescence polarization activity-based probe; at 5.96 µM; stronger effect = higher value.
Usually inhibition stands for the drop in the measured response relative to a control, in per cent. Consider `CCC(=O)N(c1ccccc1)C1(COC)CCN(CCn2nnn(CC)c2=O)CC1`, for which the inhibition was inactive: 14.4%.
With `CCC(=O)N(c1ccccc1)C1(COC)CCN(CCc2cccs2)CC1` the figure was inactive: 1.84%.
